Biological target: Hepatocyte growth factor receptor (Homo sapiens, UniProt P08581)
Assay: Potency index, ratio of foretinib IC50 to compound IC50 for c-MET (unknown origin)

Sequences of proteins named here, by UniProt entry; tags and fusion partners are left off. A change or cut given only in a name is not applied to a line headed by its entry.
UniProt P08581: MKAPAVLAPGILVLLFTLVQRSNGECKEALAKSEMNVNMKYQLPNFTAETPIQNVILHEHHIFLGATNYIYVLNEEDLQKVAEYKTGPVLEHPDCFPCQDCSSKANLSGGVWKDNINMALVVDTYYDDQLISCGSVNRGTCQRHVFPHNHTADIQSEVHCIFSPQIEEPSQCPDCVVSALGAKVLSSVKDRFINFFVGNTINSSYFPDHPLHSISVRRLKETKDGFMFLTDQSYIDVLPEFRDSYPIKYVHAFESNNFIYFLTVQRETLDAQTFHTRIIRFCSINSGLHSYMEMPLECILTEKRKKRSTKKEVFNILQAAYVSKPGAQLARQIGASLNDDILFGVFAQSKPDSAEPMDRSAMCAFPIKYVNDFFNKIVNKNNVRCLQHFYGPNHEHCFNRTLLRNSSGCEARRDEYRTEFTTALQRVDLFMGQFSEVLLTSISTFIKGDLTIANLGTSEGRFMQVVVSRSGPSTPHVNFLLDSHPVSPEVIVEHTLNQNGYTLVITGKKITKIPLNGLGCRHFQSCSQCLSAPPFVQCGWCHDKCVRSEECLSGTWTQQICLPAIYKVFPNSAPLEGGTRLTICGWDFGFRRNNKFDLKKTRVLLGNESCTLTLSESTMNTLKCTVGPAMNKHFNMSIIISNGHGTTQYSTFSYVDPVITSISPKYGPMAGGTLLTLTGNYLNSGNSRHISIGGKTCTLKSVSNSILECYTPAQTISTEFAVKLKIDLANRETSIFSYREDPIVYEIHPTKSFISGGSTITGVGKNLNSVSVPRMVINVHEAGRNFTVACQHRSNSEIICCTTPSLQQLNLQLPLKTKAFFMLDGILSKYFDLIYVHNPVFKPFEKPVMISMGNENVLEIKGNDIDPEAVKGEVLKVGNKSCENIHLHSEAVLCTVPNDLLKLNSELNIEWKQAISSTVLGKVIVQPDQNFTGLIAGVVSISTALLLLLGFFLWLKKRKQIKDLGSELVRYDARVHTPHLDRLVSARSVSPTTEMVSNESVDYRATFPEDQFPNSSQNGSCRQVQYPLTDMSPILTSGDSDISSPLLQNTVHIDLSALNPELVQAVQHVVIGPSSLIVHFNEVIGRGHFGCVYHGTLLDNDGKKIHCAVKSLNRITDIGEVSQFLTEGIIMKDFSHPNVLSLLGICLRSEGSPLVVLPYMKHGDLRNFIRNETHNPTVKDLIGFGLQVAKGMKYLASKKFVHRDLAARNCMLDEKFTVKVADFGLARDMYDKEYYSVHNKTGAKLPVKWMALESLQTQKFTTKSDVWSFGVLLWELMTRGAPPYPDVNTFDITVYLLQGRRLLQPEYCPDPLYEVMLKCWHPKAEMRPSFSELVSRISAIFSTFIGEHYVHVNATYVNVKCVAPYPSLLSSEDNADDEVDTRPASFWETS

A Ratio IC50 of 1.3 was found for COc1cc2c(Oc3ccc(NC(=O)c4cn(-c5ccccc5OC)cn4)cc3F)ccnc2cc1OCCCN1CCN(C)CC1 in this work.

From ChEMBL document CHEMBL3872279, “Design, synthesis and biological evaluation of novel 4-(2-fluorophenoxy)quinoline derivatives as selective c-Met inhibitors” (Bioorg Med Chem, 2017)
